This is an account of results in ChEMBL document CHEMBL5241093, “Recent advances in the design and discovery of synthetic tyrosinase inhibitors” (Eur J Med Chem, 2021).

Test [1] addresses T1, Tyrosinase (Agaricus bisporus, UniProt O42713).
T1 sequence (O42713 whole entry): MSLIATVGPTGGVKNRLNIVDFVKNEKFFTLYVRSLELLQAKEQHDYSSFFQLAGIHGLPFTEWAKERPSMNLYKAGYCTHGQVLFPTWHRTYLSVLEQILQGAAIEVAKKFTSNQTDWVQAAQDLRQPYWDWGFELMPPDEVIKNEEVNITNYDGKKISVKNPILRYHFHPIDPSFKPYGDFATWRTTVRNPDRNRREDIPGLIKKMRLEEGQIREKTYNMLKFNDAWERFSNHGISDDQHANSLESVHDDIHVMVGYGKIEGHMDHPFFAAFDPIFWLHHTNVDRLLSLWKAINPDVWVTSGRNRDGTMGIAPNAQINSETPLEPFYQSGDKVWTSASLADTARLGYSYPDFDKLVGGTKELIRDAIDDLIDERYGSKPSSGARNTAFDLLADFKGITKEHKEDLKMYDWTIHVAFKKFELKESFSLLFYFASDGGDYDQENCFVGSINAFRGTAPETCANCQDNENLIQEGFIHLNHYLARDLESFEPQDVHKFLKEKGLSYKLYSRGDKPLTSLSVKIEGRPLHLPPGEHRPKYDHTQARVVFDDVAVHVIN
In words: Inhibition of mushroom tyrosinase using L-DOPA as substrate assessed as diphenolase activity.

The target in test [2] is T1, Tyrosinase. Description: Inhibition of mushroom tyrosinase using L-tyrosine as substrate assessed as monophenolase activity.

`O=C(/C=C/c1ccc(O)cc1O)c1ccco1`: the concentration for half-maximal inhibition (IC50) on Tyrosinase [1] came out at 43.3 nM; at Tyrosinase [2], 280 nM.
